The list shows a part of the results, in another mix than the full data. Some tests of the compounds listed are not included; inactive here does not mean inactive elsewhere. Activity calls are given as the source filed them. Calls come from the whole dose curve; as a rule, active = well fitted inhibition curve with a large enough effect; inconclusive = small, poorly fitted or top-dose-only effect; inactive = flat fitted curve, though single readings scatter.

Amino acid sequences for entries named in this document (tags omitted).
UniProt P08659, whole entry: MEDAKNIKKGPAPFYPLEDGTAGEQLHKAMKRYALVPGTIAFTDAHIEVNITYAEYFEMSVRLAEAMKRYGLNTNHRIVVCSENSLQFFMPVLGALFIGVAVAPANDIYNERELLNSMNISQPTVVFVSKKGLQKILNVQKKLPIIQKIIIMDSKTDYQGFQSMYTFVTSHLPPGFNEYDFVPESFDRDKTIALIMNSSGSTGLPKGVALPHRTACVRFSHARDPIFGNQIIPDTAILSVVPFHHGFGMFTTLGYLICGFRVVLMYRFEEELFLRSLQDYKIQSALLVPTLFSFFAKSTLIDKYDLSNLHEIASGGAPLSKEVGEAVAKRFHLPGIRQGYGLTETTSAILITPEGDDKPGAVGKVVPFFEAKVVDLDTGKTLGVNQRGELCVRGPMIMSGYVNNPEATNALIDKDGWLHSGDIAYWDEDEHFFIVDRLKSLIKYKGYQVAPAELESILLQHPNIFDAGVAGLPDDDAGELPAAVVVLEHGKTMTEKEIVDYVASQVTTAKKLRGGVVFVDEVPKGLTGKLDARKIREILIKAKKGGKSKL

This is an account of results in PubChem BioAssay AID411 (National Center for Advancing Translational Sciences (NCATS), 2006).
% is set by controls: 0 for no effect and ±100 for the full control effect.

The test addresses Luciferin 4-monooxygenase (Photinus pyralis) (UniProt P08659). Nature of the test: qHTS Assay for Inhibitors of Firefly Luciferase. Note: nearly all actives have a fitted effect of over 40% in size. The conditions noted are these: purified firefly luciferase, luminescence, 8 min; at 11.4 µM (top of the series) unless noted. How it is done:
To aid in the interpretation of high-throughput screening (HTS) results derived from luciferase-based assays, we used quantitative HTS, an approach that defines the concentration-response behavior of each library sample, to profile the ATP-dependent luciferase from Photinus pyralis against more than 72 000 samples. Luciferase (PKLight, Cambrex Corporation) was assayed for its ability to generate light using ATP and luciferin as substrates. The ATP concentration in the assay (10 uM) was within the linear range of enzyme activity for the assay conditions used. See following reference for further details: [1] Auld DS, Southall NT, Jadhav A, Johnson RL, Diller DJ, Simeonov A, Austin CP, Inglese J. Characterization of chemical libraries for luciferase inhibitory activity. J Med Chem. 2008 Apr 24;51(8):2372-86. Auld DS, Zhang YQ, Southall NT, Rai G, Landsman M, Maclure J, Langevin D, Thomas CJ, Austin CP, Inglese J. A Basis for Reduced Chemical Library Inhibition of Firefly Luciferase Obtained from Directed Evolution. J. Med. Chem., 2009, 52 (5), pp 1450#1458 [3] Auld DS, Thorne N, Nguyen DT, Inglese J. A specific mechanism for nonspecific activation in reporter-gene assays. ACS Chem Biol. 2008 Aug 15;3(8):463-70. Auld DS, Thorne N, Maguire WF, Inglese J. Mechanism of PTC124 activity in cell-based luciferase assays of nonsense codon suppression. Proc Natl Acad Sci U S A. 2009 Mar 3;106(9):3585-90. Inglese J, Auld DS, Jadhav A, Johnson RL, Simeonov A, Yasgar A, Zheng W, Austin CP. Quantitative high-throughput screening: a titration-based approach that efficiently identifies biological activities in large chemical libraries. Proc Natl Acad Sci U S A. 2006 Aug 1;103(31):11473-8.
Four uL of substrate mix (final concentration, 50 mM imidazole pH 7.2, 50 mM KCl, 7 mM MgCl2, 10 uM ATP, 0.01% Tween 20, 0.05% BSA) was dispensed into white 1536 well plates. Twenty-three nL of compound was delivered by a pin tool and 2 uL of luciferase detector mix (PKLight, Cambrex) was added. Following 8-minute incubation at ambient temperature, luminescence was measured by a ViewLux (Perkin Elmer) at 5 seconds exposure/plate.
Consider `C=C(C)C#C[C@@](O)(C(=O)OC1CCN(C)CC1)c1ccccc1`, for which the activity change, negative = inhibition was inactive: 2.5%.
On to `O=C(OC1CN2CCC1CC2)C(CO)(c1ccccc1)c1ccccc1` (stereo not given), for which the activity change, negative = inhibition is inactive: 0.0751% [at 57.1 µM].
To `CN1CC[C@H](OC(=O)[C@](O)(c2ccccc2)C2CCCC2)C1` belongs inactive: 6.51%; to `CN1CCC[C@H](OC(=O)[C@](O)(c2ccccc2)C2CCCC2)C1`, inactive: 2.8%; to `CN(C)c1cccc(C(=O)NCC2(N(C)C)CCCCC2)c1`, inactive: 3.12% [at 57.1 µM].
